Amino acid sequences for entries named in this document (tags omitted).
UniProt P19327, whole entry: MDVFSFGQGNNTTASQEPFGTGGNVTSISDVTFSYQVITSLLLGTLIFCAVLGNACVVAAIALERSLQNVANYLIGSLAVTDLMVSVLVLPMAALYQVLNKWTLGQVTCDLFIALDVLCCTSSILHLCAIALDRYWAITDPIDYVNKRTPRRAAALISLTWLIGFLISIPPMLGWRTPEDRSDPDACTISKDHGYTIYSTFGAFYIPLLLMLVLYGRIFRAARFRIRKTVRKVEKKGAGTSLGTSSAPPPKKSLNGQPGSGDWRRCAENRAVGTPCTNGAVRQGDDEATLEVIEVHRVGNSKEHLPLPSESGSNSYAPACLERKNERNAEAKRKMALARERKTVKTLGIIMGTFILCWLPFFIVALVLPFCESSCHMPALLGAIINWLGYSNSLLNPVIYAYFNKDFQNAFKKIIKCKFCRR

In ChEMBL document CHEMBL1126858, “Synthesis of (R,S)-trans-8-hydroxy-2-[N-n-propyl-N-(3'-iodo-2'-propenyl)amino]tetral in (trans-8-OH-PIPAT): a new 5-HT1A receptor ligand” (J Med Chem, 1993):

Target: 5-hydroxytryptamine receptor 1A (Rattus norvegicus, UniProt P19327)
Assay: Binding affinity towards 5-hydroxytryptamine 1A receptor by the displacement of [125I]trans-8-OH-PIPAT in membrane homogenates of hippocampal tissue of rat brain
Type: tissue-based, Hippocampus

With `NCCc1c[nH]c2ccc(O)cc12` [SEROTONIN] the Ki was 4.31 nM.
